This assay addresses human 5-HT transporter (hSERT) (Homo sapiens, UniProt P31645). Kind of assay: 5-HT reuptake inhibition, [3H]5-HT uptake in transfected HEK-293 MSR cells. The note with it: read-out: Serotonin Ki. Here is the method:
Assesment of 5-HT reuptake inhibition.
Inhibition assessment of 5-HT reuptake was performed as follows. The mammalian expression plasmid pcDNA3.1 containing human 5-HT transporter (hSERT) cDNA has been described previously. HEK-293 MSR cells (Invitrogen) were cultured as monolayers in Dulbecco's modified Eagle's medium (BioWhitaker) supplemented with 10% fetal calf serum (Invitrogen), 100 units/mL penicillin, 100 µg/mL streptomycin (BioWhitaker) and 6 µg/mL Geneticin (Invitrogen) at 95% humidity, 5% p(CO2) and 37°C. Cells were detached from the culture flasks by Versene (Invitrogen) and trypsin/EDTA (BioWhitaker) treatment for subculturing or seeding into white TC-microtiter plates (Nunc). Transfection and measurement of [^3H]5-HT (PerkinElmer Life Sciences) uptake was performed as described by Larsen et al. (2004) except that HEK-293 MSR cells (Invitrogen) were used instead of COS-1 cells.

Protein sequences, listed by entry. Tags and fused reporters are not part of them.
UniProt P31645, whole entry: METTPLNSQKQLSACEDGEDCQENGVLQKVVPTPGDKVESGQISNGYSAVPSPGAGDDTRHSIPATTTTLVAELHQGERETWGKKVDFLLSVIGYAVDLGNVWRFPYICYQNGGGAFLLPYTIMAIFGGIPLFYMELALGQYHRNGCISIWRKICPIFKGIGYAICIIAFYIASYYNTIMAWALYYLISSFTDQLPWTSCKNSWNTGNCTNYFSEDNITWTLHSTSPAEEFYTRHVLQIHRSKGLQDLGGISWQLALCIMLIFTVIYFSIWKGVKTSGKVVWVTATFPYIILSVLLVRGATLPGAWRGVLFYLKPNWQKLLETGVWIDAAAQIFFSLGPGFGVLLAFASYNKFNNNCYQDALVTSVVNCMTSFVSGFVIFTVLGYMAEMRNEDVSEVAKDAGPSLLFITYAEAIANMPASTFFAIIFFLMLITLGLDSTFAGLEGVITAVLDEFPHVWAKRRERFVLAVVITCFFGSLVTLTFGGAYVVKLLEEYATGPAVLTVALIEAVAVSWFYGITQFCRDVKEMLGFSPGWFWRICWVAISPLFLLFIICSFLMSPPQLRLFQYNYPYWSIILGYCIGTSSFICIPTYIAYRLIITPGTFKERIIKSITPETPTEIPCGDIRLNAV

One may read the Ki as a measure of affinity in units of concentration, obtained from inhibition or displacement. On to `NCCc1c[nH]c2ccc(F)cc12`, for which the Ki is 10 to 20 nM.

Source of the values: patent EP2682119A1, “Aromatic N-heterocycle derivatives for use as medicine” (Université Libre de Bruxelles, priority 2012, dated 2014).
